The numbers were not newly measured in US20170268027A1, “METHOD FOR SYNTHESIS OF FATTY ACIDS” (priority 2014, published 2017), which cites them from elsewhere.

Structures are written as SMILES.

For the data set, the system named is Escherichia coli. To be noted: addition in the culture medium, genetically modified strains; cited from earlier work.

In the case of `C/C=C/C/C=C/CCC(=O)[C@H]1O[C@H]1C(N)=O` [cerulenin], the “effect on yield of short-chain fatty acids” value is “increase the yield of synthesis of specific short-chain fatty acids”.
